## scFv variants of Ab-14 (light chain) against a SARS-CoV-2 spike peptide

All variants were tested on one target, the spike HR2 peptide PDVDLGDISGINAS (SARS-CoV-2).

Each scFv is VH, a 15-residue (Gly4Ser)3 linker, VL, as in the parent Ab-14, and differs from it in the CDRs of the light chain only.
VH: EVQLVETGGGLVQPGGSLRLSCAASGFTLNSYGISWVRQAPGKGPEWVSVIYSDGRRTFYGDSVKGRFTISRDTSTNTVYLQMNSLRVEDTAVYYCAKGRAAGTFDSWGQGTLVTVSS
VL: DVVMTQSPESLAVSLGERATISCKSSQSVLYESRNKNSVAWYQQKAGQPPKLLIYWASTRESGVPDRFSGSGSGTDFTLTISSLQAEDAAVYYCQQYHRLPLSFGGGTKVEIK

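The starting antibody came from a phage panning campaign against this peptide. The variants were designed computationally from a first round of random CDR variants and then made and measured. Several design methods are mixed in this list. Affinity was read by AlphaSeq, a pooled yeast mating assay with surface-displayed partners. Binding brings cells together so that they mate, and sequencing counts the barcode pairs among the diploids. Each replicate has its own calibration line, from reference interactions of the BCL2 family. Mating was done six times.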

Each variant is given by its three light chain CDRs, as the data file delimits them; those of the parent are KSSQSVLYESRNKNSVA, WASTRES, QQYHRLPLS.
Variants here have at most six changes.
The Kd shown is the geometric mean over detected replicates; a lower Kd is a better binder.
A pair that was not seen in any replicate is written "nd"; this usually means weak binding, but a binder can also be missed.
Entries are sorted by rising average, undetected variants last.
The authors averaged sequences with at least three values out of six and counted those with two or fewer as poor binders.
The parent sequence was in this pool as ten entries: three were never detected, three once, and four in most replicates, with averages from 2.2 nM to 240 nM.
Nonspecific signal, from three strains lacking the peptide, appeared in 4% of pairings of all light chain designs, centred on 430 nM (5% of these signals below 38 nM); values are not corrected for it.
Values of this round are not directly comparable with the first-round values of the same sequences.

| CDR-L1 | CDR-L2 | CDR-L3 | Kd | detected |
|---|---|---|---|---|
| KISQSVLYESRNKNSVA | EASTREQ | QQYHRLPLS | 370 pM | 6 of 6 |
| KSSWSQLYESRNKNSVA | DASTRES | QQYHRLPLS | 460 pM | 6 of 6 |
| KLSQSVLYEERNKNNVA | DASTRES | QQYHRLPLS | 480 pM | 6 of 6 |
| KLPQSSLYESRNKNSVA | NASTRLS | QQYHRLPLS | 590 pM | 6 of 6 |
| KFSDSVLLESRTKNAVA | NASTRES | QQYHRLPLS | 750 pM | 6 of 6 |
| KLSQSVLMESRNKNSVA | NASTRCS | QQYHRLPLS | 750 pM | 6 of 6 |
| KSSQSVLGESRNKNSVA | DASTRES | QQYHRLPLS | 790 pM | 6 of 6 |
| KLCQSVLYESRNKNSVA | HASTRED | EQYHRLPLS | 810 pM | 6 of 6 |
| KSSGSWLYESRNKNSVA | GASSRES | QQYHRLPLS | 810 pM | 6 of 6 |
| KVSQSMDYESRNKNSVA | NASTRES | QQYHRLPLS | 840 pM | 6 of 6 |
| KVSQSVDYESRNKNAVA | NASTRES | QQYHRLPLS | 880 pM | 6 of 6 |
| HLSNSVLYESRNKNSVA | NASTRES | QQYHRLPLN | 920 pM | 6 of 6 |
| KQQQSVLYEERNKNSVA | DASTRES | QQYHRLPLS | 980 pM | 6 of 6 |
| KLEQSDLYESRNKNAVA | NASQRES | QQYHRLPLS | 990 pM | 6 of 6 |
| KSDQSQLYENRMKNSVA | DASLRES | QQYHRLPLS | 1.0 nM | 6 of 6 |
| HLSDSVLYESRNKNSVA | NASTRES | QQYHRLPLA | 1.0 nM | 6 of 6 |
| KSQQSVDYESRNKNNVA | HASTRED | QQYHRLPLS | 1.4 nM | 6 of 6 |
| KLQQSQLYESRNFNSVA | NASTRED | QQYHRLPLS | 1.5 nM | 6 of 6 |
| KLSQSVLYESRNKNSVA | WASTRES | QQYHRLPFS | 1.5 nM | 6 of 6 |
| KISQSVEYESRDKNSVA | NANTRLS | QQYHRLPLS | 1.6 nM | 6 of 6 |
| QSSQSFLYESRNKNSVA | NASTRES | QQYHRLPLS | 1.7 nM | 6 of 6 |
| KLSQSVLYESRLKNNVA | DASTRES | QQYHRLPLS | 1.9 nM | 6 of 6 |
| KLQMSQLYESRNKNSVA | NASTRES | QQYHRLPLS | 1.9 nM | 6 of 6 |
| KLQQSHLYESRNKNSVA | HASTRES | QQYHRLPLS | 2.1 nM | 6 of 6 |
| KWMQSQEYESRNKNSVA | EASTREL | QQYHRLPLS | 2.2 nM | 6 of 6 |
| KFSQSVLYESTTCNSVA | NASTRES | QQYHRLPLS | 2.3 nM | 6 of 6 |
| KLSQSVLYEGRLKNSVA | NASTRMS | QQYHRLPLS | 3.0 nM | 6 of 6 |
| KSSQSVLTESRDKNSVA | DASTRES | QQYHRLPLS | 3.3 nM | 5 of 6 |
| KSSQSVLYNSRNKNSVA | DASTRVS | QQYHRLPLS | 3.7 nM | 6 of 6 |
| KSSISYLYASRMKNSVA | EASTLES | QQYHRLPLS | 4.5 nM | 6 of 6 |
| KVSQSVLYESGTKNSVA | NASMRES | QQYHRLPLS | 4.5 nM | 6 of 6 |
| KQSQEVLGESRNKNSVA | DASTRES | QQYHRLPLS | 4.7 nM | 6 of 6 |
| KLSQSHLYESRMKNSVA | NASTREV | QQYHRLPLS | 4.8 nM | 6 of 6 |
| KMSQSVQYESPNKHSVA | WASTRAS | QLYHRLPLS | 5.7 nM | 6 of 6 |
| KVSQSVLYESGTKNSVA | NASHRES | QQYHRLPLS | 7.0 nM | 6 of 6 |
| KSSQSYLYESGNKNSVA | HASTRMS | QQYHRLPLS | 7.7 nM | 6 of 6 |
| KLEMSTLYESRNKNSVA | WASTRES | QQYHRLPLS | 9.5 nM | 6 of 6 |
| KSSQSLVGESRNKNSVA | TASTRES | QQYHRLPLS | 11 nM | 6 of 6 |
| KSSSSVLYESRNKNSVA | NASTRED | FQYHHLPLS | 13 nM | 6 of 6 |
| KSSQSVLFESNNKNSVA | WASTRES | QQYHRLPLS | 16 nM | 6 of 6 |
| KSEQSVLYEGRNKNSVA | WGSTRIS | QQYHRLPLS | 19 nM | 6 of 6 |
| KSSQSVLYESRNKNSVA | QASTRES | QQYHRLTLS | 24 nM | 6 of 6 |
| KMSQSVLYYSRNKNSVA | AASTRES | QQYHRLPLS | 26 nM | 6 of 6 |
| KSSQSVLYEHRNTNSVA | WASTRES | QQYYRLPLS | 27 nM | 5 of 6 |
| KAPQSQLYESRNKNSVA | GASTRES | QQYHRLPLI | 39 nM | 6 of 6 |
| KISQSVLYEHRNKNSVA | WASTRES | QQYHRLPLE | 47 nM | 2 of 6 |
| KYSQSVLYEHRNKNSVA | WALTRES | QQYHRLPLS | 97 nM | 4 of 6 |
| KMSGLVLYESRNKNSVA | TANTRES | QQYHRLPLF | 110 nM | 5 of 6 |
| KHSQSVLYESHNKNSVA | WASTRES | QQYHRLPLS | 120 nM | 3 of 6 |
| KSSQSVLLESVNKNSVA | WASTRES | QQYHRAPLS | 140 nM | 3 of 6 |
| KSGQSDLYEERNKNSVA | WASTRES | QQYHRLPLS | 320 nM | 6 of 6 |
| KWSQSVLYESKNKNSVA | WASTRES | QQYHRLPLS | 450 nM | 5 of 6 |
| KSSQSVLYELRNKNSVA | WASTRES | QQKGRLPLS | 540 nM | 3 of 6 |
| KYSQSVLYESRNKNSVA | HASTREA | QQYHRSPLS | 540 nM | 1 of 6 |
| KLSQSHLYESRNKNSVA | NASTRED | QQYHRLPLS | nd | 0 of 6 |

Top 9 of the variants detected in all replicates, tightest first:

{"CDR-L1": "KISQSVLYESRNKNSVA", "CDR-L2": "EASTREQ", "CDR-L3": "QQYHRLPLS", "Kd": "370 pM", "detected": "6 of 6"}
{"CDR-L1": "KSSWSQLYESRNKNSVA", "CDR-L2": "DASTRES", "CDR-L3": "QQYHRLPLS", "Kd": "460 pM", "detected": "6 of 6"}
{"CDR-L1": "KLSQSVLYEERNKNNVA", "CDR-L2": "DASTRES", "CDR-L3": "QQYHRLPLS", "Kd": "480 pM", "detected": "6 of 6"}
{"CDR-L1": "KLPQSSLYESRNKNSVA", "CDR-L2": "NASTRLS", "CDR-L3": "QQYHRLPLS", "Kd": "590 pM", "detected": "6 of 6"}
{"CDR-L1": "KFSDSVLLESRTKNAVA", "CDR-L2": "NASTRES", "CDR-L3": "QQYHRLPLS", "Kd": "750 pM", "detected": "6 of 6"}
{"CDR-L1": "KLSQSVLMESRNKNSVA", "CDR-L2": "NASTRCS", "CDR-L3": "QQYHRLPLS", "Kd": "750 pM", "detected": "6 of 6"}
{"CDR-L1": "KSSQSVLGESRNKNSVA", "CDR-L2": "DASTRES", "CDR-L3": "QQYHRLPLS", "Kd": "790 pM", "detected": "6 of 6"}
{"CDR-L1": "KLCQSVLYESRNKNSVA", "CDR-L2": "HASTRED", "CDR-L3": "EQYHRLPLS", "Kd": "810 pM", "detected": "6 of 6"}
{"CDR-L1": "KSSGSWLYESRNKNSVA", "CDR-L2": "GASSRES", "CDR-L3": "QQYHRLPLS", "Kd": "810 pM", "detected": "6 of 6"}

Data: MIT Lincoln Laboratory AlphaSeq set, Li et al. 2023, doi:10.1038/s41467-023-39022-2, as distributed in FLAb.